Where only a bound is given, the exact number is not on record here.

Data set [1] deals with L-6 cells (rat skeletal myoblasts). Kind of data set: In vitro cytotoxicity with L-6 cells (resazurin). Particulars: L6 cells, 70 h + 2 h resazurin; mean ± absolute deviation. The format is cell-based. On the procedure: Assays were performed in 96-well microtiter plates, each well containing 100 µl of RPMI 1640 medium supplemented with 1% L-glutamine (200 mM) and 10% fetal bovine serum, and 4000 L-6 cells (a primary cell line derived from rat skeletal myoblasts) ([Ahmed et al., 1994]). Serial drug dilutions of 11 three-fold dilution steps covering a range from 100 to 0.002 μg/ml were prepared 24 h post seeding L-6 cells. The plates were incubated for 70 h and inspected under an inverted microscope to assure growth of the controls and sterile conditions. 10 µl of resazurin was then added to each well and the plates incubated for another 2 h. Then the plates were read with a Spectramax Gemini XS microplate fluorometer (Molecular Devices Cooperation, Sunnyvale, CA, USA) using an excitation wavelength of 536 nm and an emission wavelength of 588 nm. The IC50 values were calculated by linear regression and four-parameter logistic regression from the sigmoidal dose inhibition curves using SoftmaxPro software (Molecular Devices Cooperation, Sunnyvale, CA, USA). Podophyllotoxin (Sigma P4405) was used as positive control. All assays were performed in two independent replicates at least. Activities of all compounds were expressed in µM using the formula: […]

Data set [2] concerns mouse peritoneal macrophages. Nature of the data set: Cytotoxicity to macrophages determined in parallel to the intramacrophage assay. The format is cell-based. Particulars: surviving, uninfected mouse peritoneal macrophages, 96 h. The procedure:
Macrophages were isolated from the mouse (CDI) peritoneal cavity ([Zhang et al., 2008]) using 2% starch solution as eliciting agent injected 2 day prior to cell harvest. Animal work was carried out according to the rules and regulations for the protection of animal rights (“Tierschutzverordnung”) of the Swiss “Bundesamt für Veterinärwesen” (License number 2374). Mouse peritoneal macrophages (4 × 10^4 in 100 µL RPMI 1640 medium with 10% heat-inactivated FBS) were seeded into wells of a 96-well plate. After 24 h, 2 × 10^5 amastigote L. donovani in 100 µL were added. The amastigotes were taken from an axenic amastigote culture grown at pH 5.4. The medium containing free amastigote forms was removed after 24 h and replaced with fresh medium. The washing step was repeated and afterward the serial drug dilution was prepared with at least 6 dilution steps. Compounds were dissolved in DMSO at 10 mg/ml and further diluted in medium. After 96 h of incubation at 37°C under a 5% CO2 atmosphere, the medium was removed, and cells were fixed by adding 50 µl 4% formaldehyde solution followed by a staining with a 5 µM DRAQ5 solution. […] The IC50 values were calculated based on the infection rate and the numbers of intracellular amastigotes. The cytotoxicity to macrophages was determined in parallel, and IC50 values were calculated based on the numbers of surviving, uninfected macrophages. […]

Usually IC50 stands for the concentration that gives 50% inhibition. Regarding “(+)-(7S,7′S,8R,8′R)-Pinoresinol [Compound 10]”, the IC50 in data set [1] was 242 ± 21.2 µM; in data set [2] it was more than 270 µM.

The record behind these values is publication PMC7456963, “HPLC-Based Activity Profiling for Antiprotozoal Compounds in Croton gratissimus and Cuscuta hyalina” (Frontiers in Pharmacology, 2020).
